Measured values: patent US20200319163A1, “METHODS AND COMPOSITIONS OVERCOMING CANCER CELL IMMUNE RESISTANCE” (Georgetown University, priority 2019, published 2020)

Tests used:
ADCCR1 cells = assay: ADCC assay (specific lysis by NK92-CD16V effector cells) on ADCC-resistant cells; assay type: cell-based, human; settings: FIG. 29
Excerpt: (§1) Inhibitors of histone acetyltransferase C646 (cat. no. S7152), DNA methyltransferase azacytidine (cat. no. S1782), histone demethylase GSK J4 HCL (cat. no. S7070), and HDAC panobinostat (cat. no. S1030) were purchased from Selleck Chemicals. Inhibitors were solubilized in DMSO at […]. Vehicle treatment (DMSO) was used at the highest equivalent v/v used in inhibitor treatments.
(§2) ADCC assays were preformed using A431/ADCCS1/ADCCR1 as target cells and NK92-CD16V cells as the effector cells. Target cells are plated at 10,000 cells/well overnight (A431 cells double overnight).

ADCCS1 cells = assay: ADCC assay (specific lysis by NK92-CD16V effector cells) on ADCC-sensitive cells; assay type: cell-based, human; settings: FIG. 29
Excerpt: as §1, §2

N#CC[C@H](C1CCCC1)n1cc(-c2ncnc3[nH]ccc23)cn1 [ruxolitinib]
ADCC magnitude of cytotoxicity after ruxolitinib exposure (ADCCR1 cells): not in ADCCR1 cells
ADCC magnitude of cytotoxicity after ruxolitinib exposure (ADCCS1 cells): increases the ADCC magnitude of cytotoxicity
